Reference: patent publication US10583094B2

Test: Tissue distribution of fluorescent-tagged drug after MCA stroke (MCE model)
Format: in vivo, rat
Details: 6 hr after stroke

BODIPY-FL-glyburide [BODIPY-glibenclamide]
Fluorescent labeling of cells, microvessels and capillaries in peri-infarct / ischemic regions: clearly labeled; also recorded: fluorescent labeling was evident

“Also recorded” adds a separate entry of the source.
